{"source": "patent US12163169B2", "about": "“Inducible chimeric cytokine receptors” (Allogene Therapeutics, Inc., priority 2018, dated 2024)", "key": {"CAR T cells": {"system": "CAR T cells", "experiment": "AP1903-driven growth assay: enrichment, memory and exhaustion phenotype of CAR T cells (Example 16B)", "format": "cell-based", "conditions": "2 weeks; exogenous recombinant cytokine 10 ng/mL; 20% CAR+ seeded; FIG. 43", "method": "To test whether different cytotail outputs influenced the memory differentiation and long-term survival of CAR T cells, we performed an AP1903-driven growth assay. CAR T cells bearing the indicated chimeric receptors were thawed and the percentages of CAR+ cells were normalized to the sample with the lowest transduction efficiency (i.e. 20% CAR+) by adding non-transduced T cells. Cells were either left untreated, or treated with 500 ng/ml of AP1903, and in the absence of exogenous cytokines (unless specified in the case of positive controls) or target cells for 2 weeks. As positive controls, CAR T cells were alternatively supplemented with either exogenous recombinant IL-7 or IL-2 (10 ng/mL each; Miltenyi). On Day 5 of the AP1903-driven growth assay, supernatents were sampled for the analysis of cytokine release using the MSD assay (Meso Scale Discovery). At the end of the 2-week culture, the memory and exhaustion phenotypes of surviving CAR T cells were determined. Briefly, duplicate samples from each culture condition cells were harvested and stained using the Zombie NIR Fixable Viability Kit (Biolegend). […]"}, "CAR+ T cells": {"system": "CAR+ T cells", "experiment": "CAR+ T cell enrichment during manufacturing in IL-2 or AP1903 (Example 13)", "format": "cell-based", "conditions": "expanded in 20 ng/ml human IL-2 or AP1903 from Day 5; FIGS. 35B-E", "method": "On Day 0, Purified T cells were activated in X-Vivo-15 medium (Lonza) supplemented with 100 IU/mL human IL-2 (Miltenyi Biotec), 10% FBS (Hyclone), and human T TransAct (Miltenyi Biotec, Cat #130-111-160, 1:100 dilution) in a Grex-24 plate (Wilson Wolf, cat #80192M). On Day 2, T cells were resuspended at 0.5 million cells per mL in 1 mL of T cell transduction media per well of a Grex-24 plate (Wilson Wolf, cat #80192M). Lentiviral supernatants were made as described above and transduction was performed on Day 2. On Day 5 when transduction was complete, cells were washed to remove residual human IL-2, resuspended in fresh T cell expansion media, i.e., X-Vivo-15 supplemented with 5% human AB serum (Gemini Bio), and expanded in either 20 ng/ml human IL-2, or the indicated concentrations of AP1903, in Grex-24 well plates. Cells were expanded into larger G-Rex vessels (Wilson Wolf) as needed using T cell expansion media. On Days 5, 9 and 15, the enrichment of CAR+ T cells was determined by detecting the percentage of T cells that bound a FITC-conjugated v5 tag monoclonal antibody (Thermo Fisher) using flow cytometry."}}, "data": [{"substance": "IL-2: human IL-2 (Miltenyi), exogenous recombinant cytokine [reference compound]", "values": [{"measurement": "percentage of CAR+ cells", "setting": "CAR T cells", "value": "~20", "unit": "%"}, {"measurement": "percentage of CAR+ T cells (enrichment) during expansion", "setting": "CAR+ T cells", "value": "maintained a stable percentage of CAR+ T cells"}]}]}
